Experimental data as given in US3996344A, “Phenethylamine antigenic conjugates, their preparation, antibodies and use” (Biological Developments, Inc., priority 1974, dated 1976).

Tested on: antiserum (to the material produced according to Example 2b, p-succinyl-amphetamine coupled to thyroglobulin)
Experiment: Radioimmune assay: inhibition of 3H-d-amphetamine binding to, and cross-reactivity of, antiserum to the material produced according to Example 2b
Settings: antiserum to Example 2b material; for Percent Cross-Reactivity: method of Abraham, relative quantity that produces 50% inhibition x 100, d-amphetamine = 100

Row | SMILES | Percent Cross-Reactivity [%] | Percent Inhibition of Binding 3H-d-amphetamine (10 picograms of unlabeled amphetamine) [%] | Percent Inhibition of Binding 3H-d-amphetamine (100 picograms of unlabeled amphetamine) [%] | Percent Inhibition of Binding 3H-d-amphetamine (1,000 picograms of unlabeled amphetamine) [%] | Percent Inhibition of Binding 3H-d-amphetamine (10,000 picograms of unlabeled amphetamine) [%]
1 | C[C@@H](N)Cc1ccccc1 [1-amphetamine] | 3.8 | – | – | – | –
2 | C[C@H](N)Cc1ccccc1 [d-amphetamine] | 100 | 13 | 27 | 37 | 65
3 | CN[C@@H](C)Cc1ccccc1 [methadrine] | 3.3 | – | – | – | –
